Experimental data as given in ChEMBL document CHEMBL1134072, “Anodic oxidation of ifosfamide and cyclophosphamide: a biomimetic metabolism model of the oxazaphosphorinane anticancer drugs” (Bioorg Med Chem Lett, 2001).

Assay: In vitro cytotoxicity tested as inhibitory concentration against carcinoma KB cell line

SMILES | IC50 [µM]
CO[C@H]1CCOP(=O)(N(CCCl)CCCl)N1 (some centres not stated) | 16
O=P1(N(CCCl)CCCl)NC(O)CCO1 (configuration not stated) | 10
